ChEMBL document CHEMBL3585263, “Novel Octahydropyrrolo[3,4-c]pyrroles Are Selective Orexin-2 Antagonists: SAR Leading to a Clinical Candidate” (J Med Chem, 2015)

By UniProt entry, the sequences of proteins in these tests, tags left out.
UniProt O43614, whole entry: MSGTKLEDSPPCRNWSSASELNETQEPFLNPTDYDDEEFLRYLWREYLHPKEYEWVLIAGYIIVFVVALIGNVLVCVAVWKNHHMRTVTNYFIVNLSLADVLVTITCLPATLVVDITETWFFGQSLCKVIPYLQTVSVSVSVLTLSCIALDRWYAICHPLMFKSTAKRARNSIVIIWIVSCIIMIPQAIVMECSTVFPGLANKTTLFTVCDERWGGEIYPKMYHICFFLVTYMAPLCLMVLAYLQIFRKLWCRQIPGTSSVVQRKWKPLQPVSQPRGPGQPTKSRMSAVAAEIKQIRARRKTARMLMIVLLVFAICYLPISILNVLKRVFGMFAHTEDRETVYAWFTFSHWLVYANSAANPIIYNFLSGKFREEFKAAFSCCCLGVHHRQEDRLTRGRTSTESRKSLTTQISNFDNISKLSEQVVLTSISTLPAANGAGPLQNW
UniProt O43613, whole entry: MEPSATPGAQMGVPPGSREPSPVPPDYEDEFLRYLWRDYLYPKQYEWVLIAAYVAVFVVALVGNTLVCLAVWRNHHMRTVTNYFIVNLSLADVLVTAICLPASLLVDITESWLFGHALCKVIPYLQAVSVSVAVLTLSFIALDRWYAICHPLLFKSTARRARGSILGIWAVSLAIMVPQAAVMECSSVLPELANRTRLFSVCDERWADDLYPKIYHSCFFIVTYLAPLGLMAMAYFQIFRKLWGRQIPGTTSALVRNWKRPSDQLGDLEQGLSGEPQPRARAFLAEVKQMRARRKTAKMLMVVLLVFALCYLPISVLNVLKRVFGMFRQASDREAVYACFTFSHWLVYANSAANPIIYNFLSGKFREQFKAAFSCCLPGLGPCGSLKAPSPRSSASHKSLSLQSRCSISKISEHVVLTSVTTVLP

Tests used:
Orexin receptor type 2 = Orexin receptor type 2 (Homo sapiens, UniProt O43614)
[1] = molecular target: Orexin/Hypocretin receptor type 1 (Homo sapiens, UniProt O43613)

Structure (SMILES) | Ki (Orexin receptor type 2) [µM] | Ki [1] [µM]
Cc1cc(C)nc(N2C[C@H]3CN(C(=O)c4c(C)cccc4-n4nccn4)C[C@H]3C2)n1 | 0.008 | 
Cc1cc(C)nc(N2C[C@H]3CN(C(=O)c4c(F)cccc4-n4nccn4)C[C@H]3C2)n1 [SELTOREXANT] |  | 0.8
